Literature values, collected in US20230047102A1, “PHARMACEUTICAL COMPOSITIONS COMPRISING N-[1-(5-CYANO-PYRIDIN-2-YLMETHYL)-1H-PYRAZOL-3-YL]-2-[4-(1-TRIFLUOROMETHYL-CYCLOPROPYL)-PHENYL]-ACETAMIDE” (Idorsia Pharmaceuticals Ltd, priority 2019, published 2023).

Conditions: subject to certain variations of this value found in the literature; cited from earlier work

D-α-tocopherol polyethylene glycol 1000 succinate [Vitamin E-TPGS]
hydrophilic-lipophilic balance (HLB) value: about 13
